Measured values published in article PMC6788984, “High-potency ligands for DREADD imaging and activation in rodents and monkeys” (Nature Communications, 2019).

Sequences of proteins named here, by UniProt entry; tags and fusion partners are left off.
UniProt P20309, whole entry Y149C/A239G: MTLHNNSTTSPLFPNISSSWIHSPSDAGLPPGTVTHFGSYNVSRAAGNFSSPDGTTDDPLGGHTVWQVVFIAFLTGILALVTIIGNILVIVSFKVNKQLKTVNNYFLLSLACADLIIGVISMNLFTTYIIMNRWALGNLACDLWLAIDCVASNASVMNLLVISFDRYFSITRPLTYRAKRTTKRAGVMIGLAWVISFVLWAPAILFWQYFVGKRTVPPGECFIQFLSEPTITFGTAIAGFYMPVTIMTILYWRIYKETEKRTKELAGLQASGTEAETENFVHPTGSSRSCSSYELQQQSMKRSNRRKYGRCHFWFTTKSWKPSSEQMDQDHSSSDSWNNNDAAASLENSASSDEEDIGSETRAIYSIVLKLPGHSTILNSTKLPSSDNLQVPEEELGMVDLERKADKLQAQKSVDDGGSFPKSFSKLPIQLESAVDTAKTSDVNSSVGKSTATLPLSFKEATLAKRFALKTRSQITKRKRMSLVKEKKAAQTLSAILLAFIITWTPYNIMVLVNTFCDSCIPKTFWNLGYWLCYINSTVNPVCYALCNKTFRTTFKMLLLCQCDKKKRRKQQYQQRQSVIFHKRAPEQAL

Biological target: hM3Dq (Homo sapiens, UniProt P20309, A239G/Y149C)
Assay: [3H]clozapine competition binding, membranes of HEK-293 cells expressing hM3Dq

**Q.** `CCN1CCN(C2=Nc3ccccc3Nc3ccccc32)CC1` [C22, reference compound] was tested. Which Ki did it give?
**A.** 11 nM
